Data published in US20180078656A1, “CRYPTOPHYCIN-BASED ANTIBODY-DRUG CONJUGATES WITH NOVEL SELF-IMMOLATIVE LINKERS” (priority 2015, published 2018).

Experiments:
[1] = tested on: MCF7 cells; experiment: Cell viability assay (CellTiter-Glo), MCF7, 96 h; assay type: cell-based, human; details: Her2-low MCF7, 96 h incubation; antibodies and ADC
Description: (§1) Tumor cell lines (breast carcinoma cell lines SKBR-3 and MCF7 and colon carcinoma cell line HCT116) were obtained from American Type Culture Collection and were grown according to standard protocols. SKBR-3 cells are known to express high Her2 levels and therefore are trastuzumab-sensitive, while MCF7 and HCT116 cells show low Her2 expression and therefore are trastuzumab-resistant. The effects of the cryptophycin-55-glycinate ADC conjugate on tumor cell viability were assessed using the CellTiter-Glo® Luminescent Cell Viability Assay (Promega), according to the manufacturer protocol. […] Cells were plated in black-walled 96-well plates (5000 cells per well for SKBR-3 and MCF7; 2000 cells per well for HCT116) and allowed to adhere overnight at 37° C. in a humidified atmosphere of 5% CO2. […] Five to eight triplicate datapoints were recorded for each experimental condition. At the end of the incubation luminescence was measured using a Perkin Elmer Wallac 1450 MicroBeta TriLux detector. Compound cytotoxicity was evaluated in comparison to cells treated with PBS (antibodies) or 0.1% DMSO (compounds). CC50 values were calculated by fitting viability data with a four-parameter logistic equation using a Kaleidagraph software.

[2] = tested on: HCT116 cells; experiment: Cell viability assay (CellTiter-Glo), HCT116; assay type: cell-based; details: Her2-low HCT116, 96 h incubation; antibodies and ADC
Description: as §1

[3] = tested on: SK-BR3 cells; experiment: Cell viability assay (CellTiter-Glo), SK-BR3; assay type: cell-based; details: chosen experimental conditions (concentration ranges, incubation time)
Description: as §1, with “SKBR-3 cells are known to express high Her2 levels and therefore are trastuzumab-sensitive, while MCF7 and HCT116 cells show low Her2 expression and therefore are trastuzumab-resistant.” left out

| Substance | MCF7 CC50 (in words) [1] | HCT116 CC50 (in words) [2] | effect on SKBR-3 cell viability [3] |
| --- | --- | --- | --- |
| Cry-55-Gly-mAb_Peak1: trastuzumab conjugated to Maleimide-PEG-Val-Cit-Pro-Gly-Cryptophycin-55-glycinate, oligomeric form | inactive | inactive |  |
| Cry-55-Gly-mAb_Peak2: trastuzumab conjugated to Maleimide-PEG-Val-Cit-Pro-Gly-Cryptophycin-55-glycinate, monomeric form | inactive | inactive |  |
| Trastuzumab reduced: S-S reduced trastuzumab control sample left unconjugated | inactive | inactive |  |
| Trastuzumab: recombinant humanized monoclonal antibody binding the extracellular domain of HER2 | inactive | inactive | about 30% |
